Assay results reported in PMC11024197, “Modulation of peroxisomal import by the PEX13 SH3 domain and a proximal FxxxF binding motif” (Nature Communications, 2024).

Key:
[1] = molecular target: PEX13 SH3 domain (residues 261-346) (human) (UniProt Q92968); experiment: ITC; PEX13 SH3 (35-48 µM) in the cell, titrated with peptide; 25 °C; 20 mM Tris pH 7.5, 50 mM NaCl; one-site binding model; triplicates
PEX13 SH3 domain (human) [2] = molecular target: PEX13 SH3 domain (human) (UniProt Q92968); experiment: ITC; PEX13 SH3 (35-48 uM) in the cell, peptide or fragment in the syringe; 25 °C, 20 mM Tris pH 7.5, 50 mM NaCl; one-site binding model; single runs of triplicates and their averages
PEX13 SH3 domain (human) [3] = molecular target: PEX13 SH3 domain (human) (UniProt Q92968); experiment: ITC; PEX13 SH3 at 35-48 µM titrated with PEX5 15-mer peptides or PEX5 1-76 (0.6-0.7 mM) or PEX13 350-403 (0.9-1 mM); 25 °C; 20 mM Tris pH 7.5, 50 mM NaCl; one-site model; triplicates
[4] = molecular target: PEX5, cellular (T-REx 293 PEX13 KO cells) (human (endogenous in T-REx 293)) (UniProt P50542); experiment: co-IP; lysates of T-REx 293 PEX13 KO cells transfected with PEX13 variants; mouse PEX5 antibody coupled to dynabeads; 25 mM Tris/HCl pH 7.4, 150 mM NaCl, 1 % NP-40, 5 % glycerol; 1 h at 4 °C; immunoblot

Row | Substance | stoichiometry N [1] | stoichiometry N (PEX13 SH3 domain (human) [2]) [sites] | Kd (PEX13 SH3 domain (human) [3]) [µM] | fold PEX5-bound PEX13 against PEX13 FL [4] [fold]
1 | PEX5 W2 peptide | 1 | 1 | 88 | 
2 | PEX5 W3 peptide | 1 | 1 | 102 | 
3 | PEX5 W4 peptide | 1 | 1 | 43 | 
4 | PEX13 FF/A5 (FxxxF motif replaced by polyA), expressed in cells (from UniProt Q92968 1-403) (natural protein) |  |  |  | 3.5
5 | PEX13 ΔCTR (domain or fragment) |  |  |  | 5
